Consider one molecule from patent US20250122223A1, “HETEROCYCLIC COMPOUNDS AS UBIQUITIN SPECIFIC PROTEASE 7 INHIBITORS” (ALMAC DISCOVERY LIMITED, priority 2022, published 2025).

Amino acid sequences for entries named in this document (tags omitted).
UniProt Q93009, whole entry: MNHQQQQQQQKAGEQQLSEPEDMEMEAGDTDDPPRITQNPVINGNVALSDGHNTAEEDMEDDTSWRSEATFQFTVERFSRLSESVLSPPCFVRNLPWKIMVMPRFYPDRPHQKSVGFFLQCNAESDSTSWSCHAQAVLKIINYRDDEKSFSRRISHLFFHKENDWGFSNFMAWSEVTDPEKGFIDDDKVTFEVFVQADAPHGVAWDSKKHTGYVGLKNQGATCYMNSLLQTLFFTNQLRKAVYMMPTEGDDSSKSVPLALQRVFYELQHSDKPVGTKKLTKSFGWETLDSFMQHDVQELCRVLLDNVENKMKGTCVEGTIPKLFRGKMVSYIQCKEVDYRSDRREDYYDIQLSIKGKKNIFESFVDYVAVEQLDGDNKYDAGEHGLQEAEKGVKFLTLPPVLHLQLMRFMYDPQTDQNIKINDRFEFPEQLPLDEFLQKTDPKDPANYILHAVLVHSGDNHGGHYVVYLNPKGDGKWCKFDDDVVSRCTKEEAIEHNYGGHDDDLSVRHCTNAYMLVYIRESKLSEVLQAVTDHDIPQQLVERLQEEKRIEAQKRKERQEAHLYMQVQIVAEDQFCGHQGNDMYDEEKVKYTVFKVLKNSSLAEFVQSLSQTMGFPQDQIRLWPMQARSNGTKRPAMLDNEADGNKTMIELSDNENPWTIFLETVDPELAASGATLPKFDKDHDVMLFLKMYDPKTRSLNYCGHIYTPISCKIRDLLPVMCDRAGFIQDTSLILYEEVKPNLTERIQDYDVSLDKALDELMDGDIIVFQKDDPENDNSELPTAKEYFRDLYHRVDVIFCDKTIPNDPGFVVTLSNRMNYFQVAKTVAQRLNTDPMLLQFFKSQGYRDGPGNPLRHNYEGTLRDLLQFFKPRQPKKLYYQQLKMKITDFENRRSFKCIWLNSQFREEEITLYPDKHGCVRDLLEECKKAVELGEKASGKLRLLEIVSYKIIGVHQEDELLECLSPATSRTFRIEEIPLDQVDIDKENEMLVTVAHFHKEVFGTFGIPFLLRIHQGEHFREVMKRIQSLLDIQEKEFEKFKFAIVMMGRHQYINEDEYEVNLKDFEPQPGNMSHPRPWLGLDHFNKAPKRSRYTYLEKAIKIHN

Assay [1] concerns the target T1, USP7 (Homo sapiens (Human), UniProt Q93009). The assay is described as follows: USP7 fluorescence polarisation (FP) assay with ubiquitin-Lys-TAMRA substrate. (Fluorescence polarisation rises when a labelled molecule tumbles more slowly, as on binding a larger partner.)
In assay [2] the target is T1, USP7. The assay is described as follows: Target engagement assay-HTRF, competition with HA-Ub-VPS probe in HEK293 cells stably expressing Flag-tagged USP7. Conditions: read-out: Cellular target engagement: HEK293 Stable clone M6C5 USP7 IC50; HEK293 stable clone M6C5, 2 h treatment. The method, then: HEK293 cells stably expressing Flag-tagged USP7 were treated with vehicle (DMSO) or compound (using 50 μM starting concentration and 11 dp using 1:3 serial dilution) for 2 h and subsequently lysed on ice and homogenised. Cell lysate and HA-Ub-VPS probe was then added to a white flat bottomed 384 well plate (Greiner) to a total volume of 10 μL and incubated for 40 min. 10 μL of D2 and Tb detection antibodies were subsequently added to give a final assay volume of 20 μL. Following incubation, HTRF were measured using a Pherastar FSX (BMG Labtech) exciting at 337 nm and measuring the emission at 620/665 nm. The HTRF ratiometric signal was derived and subsequently normalised to the lysate only controls. Data were plotted and fitted, and the concentrations resulting in 50% inhibition (IC50) were calculated using the non-linear regression curve fitting model using GraphPad Prism. IC50 values for the inhibitors of the invention are compiled in Table 1 above and represent the average of at least duplicate experiments.
(In TR-FRET formats the signal depends on donor and acceptor labels being close together.)

In the case of `CC1(C)CNC(c2ccc(-n3c(Cl)cc4c(=O)n(CC5(O)CCN(C(=O)C6(C)CC6C(F)(F)F)CC5)cnc43)cc2)CO1` (stereo not shown), the IC50 – broadly, the concentration at which inhibition is half-maximal – on USP7 [1] (read-out: Biochemical: USP7 IC50, average of at least duplicate experiments) is 0.053 µM; at USP7 [1] (read-out: USP7 IC50 activity (Table 3a, classes), biochemical inhibition), below 0.1 µM; on USP7 [1] (read-out: USP7 IC50 activity (Table 3b), biochemical inhibition, unit not given in Table 3b (Table 1 and key of Table 3a use μM)), 0.053 µM; on USP7 [2] it was 72 nM.
